Antibody variant affinities, Ab-14 heavy chain, assay 1

The measurements come from Engelhart et al. 2022 (doi:10.1038/s41597-022-01779-4) through the FLAb antibody collection.

Target: peptide PDVDLGDISGINAS, taken from heptad repeat 2 (HR2) of SARS-CoV-2 spike.

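The starting antibody came from a phage panning campaign against this peptide. Library AAYL49 holds single substitutions and randomly drawn double and triple substitutions in the CDRs. The assay is AlphaSeq: two haploid yeast populations carry antibody and antigen on their surface. The frequency of each diploid, read from paired DNA barcodes, reflects how well the two displayed proteins bind. Scores were corrected for input abundance and mapped to Kd with protein pairs of known affinity run in the same pool. Each pool was mated in three replicate cultures.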

The variants keep the light chain, the linker and the frameworks of Ab-14 (scFv order VH, three GGGGS repeats, VL).
VH: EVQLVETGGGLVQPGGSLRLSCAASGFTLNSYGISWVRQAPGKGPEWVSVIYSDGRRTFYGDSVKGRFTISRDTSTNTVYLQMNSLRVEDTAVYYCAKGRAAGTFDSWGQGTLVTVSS
VL: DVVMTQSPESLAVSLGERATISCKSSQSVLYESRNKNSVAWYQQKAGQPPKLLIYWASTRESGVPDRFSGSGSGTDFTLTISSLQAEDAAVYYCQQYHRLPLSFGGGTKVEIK

The parent's heavy chain CDRs are GFTLNSYGIS, VIYSDGRRTFYGDSVK, GRAAGTFDS; each variant's own CDRs replace them letter for letter.
Affinities are written as log10 Kd with Kd in nM; a lower number is a better binder.
A mean of the replicates is given; it leaves out those without a signal.
Where no diploid with the target was found in that replicate, the entry reads "ND": below detection, most likely a poor binder, though not proof of it.
Background: pairings of library AAYL49 with three empty control strains gave a value in 15% of cases (median 4.06, 5th percentile 2.83). Values in that range, when seen in few replicates, are hard to tell from nonspecific mating. The control count says in how many pairings with the empty strains this scFv gave a signal, with their mean in brackets.
In this assay the parent's reference entry averaged 0.65; its copy inside this library read 4.11 (one replicate of three).

{"CDR-H1": "GFTLNSYGIS", "CDR-H2": "VIYVDGRRTFYGSSVK", "CDR-H3": "GRAAGTFDS", "replicates, log10 nM": "ND / ND / ND", "mean log10 Kd (nM)": "ND", "signal with controls": "0/9"}
{"CDR-H1": "GFTLNSYGIS", "CDR-H2": "VIYSDGRRTFYSDVVK", "CDR-H3": "GRAAGSFDS", "replicates, log10 nM": "3.30 / 2.63 / 3.89", "mean log10 Kd (nM)": "3.27", "signal with controls": "2/9 (4.29)"}
{"CDR-H1": "NFTLTSYGIS", "CDR-H2": "VIYSDGRRTFYGDSVK", "CDR-H3": "GRKAGTFDS", "replicates, log10 nM": "3.65 / 2.84 / ND", "mean log10 Kd (nM)": "3.25", "signal with controls": "4/9 (4.11)"}
{"CDR-H1": "YFTLNSYGIS", "CDR-H2": "VIYSMGRRTFYGDSVK", "CDR-H3": "GRAAGTFDS", "replicates, log10 nM": "ND / ND / ND", "mean log10 Kd (nM)": "ND", "signal with controls": "0/9"}
{"CDR-H1": "GFTLVSYGIS", "CDR-H2": "VIYSYGRRTFYGDSVK", "CDR-H3": "GRWAGTFDS", "replicates, log10 nM": "ND / ND / ND", "mean log10 Kd (nM)": "ND", "signal with controls": "0/9"}
{"CDR-H1": "GFTLNSYGIS", "CDR-H2": "PIYSDGRRTFYGDSVK", "CDR-H3": "GRAGGFFDS", "replicates, log10 nM": "2.74 / 5.03 / 3.40", "mean log10 Kd (nM)": "3.72", "signal with controls": "3/9 (3.35)"}
{"CDR-H1": "GFNLNSYGIS", "CDR-H2": "VIYSDGRRTFYGDSVC", "CDR-H3": "GRAAGTFYS", "replicates, log10 nM": "6.25 / 3.65 / 5.21", "mean log10 Kd (nM)": "5.04", "signal with controls": "4/9 (4.78)"}
{"CDR-H1": "GFTLNSYYIS", "CDR-H2": "VIYSGGRRTFYGDIVK", "CDR-H3": "GRAAGTFDS", "replicates, log10 nM": "ND / ND / ND", "mean log10 Kd (nM)": "ND", "signal with controls": "0/9"}
{"CDR-H1": "WFTLNSYGIV", "CDR-H2": "VIYSDGRRTFYGDSVK", "CDR-H3": "GRAAGTFDS", "replicates, log10 nM": "5.69 / 4.80 / 5.00", "mean log10 Kd (nM)": "5.16", "signal with controls": "5/9 (4.70)"}
{"CDR-H1": "GFTGNSYGIS", "CDR-H2": "VIYPDGRNTFYGDSVK", "CDR-H3": "GRAAGTFDS", "replicates, log10 nM": "ND / ND / ND", "mean log10 Kd (nM)": "ND", "signal with controls": "1/9 (3.02)"}
{"CDR-H1": "GFTLYSYGIS", "CDR-H2": "VIYSDGRRTFYGDSVK", "CDR-H3": "GRAAGFFDM", "replicates, log10 nM": "ND / ND / ND", "mean log10 Kd (nM)": "ND", "signal with controls": "0/9"}
{"CDR-H1": "GFTLNSEGIS", "CDR-H2": "VIYSDGRRTFYGDNVK", "CDR-H3": "GRAWGTFDS", "replicates, log10 nM": "ND / ND / ND", "mean log10 Kd (nM)": "ND", "signal with controls": "0/9"}
{"CDR-H1": "GITLNSYGIQ", "CDR-H2": "VIYSAGRRTFYGDSVK", "CDR-H3": "GRAAGTFDS", "replicates, log10 nM": "3.39 / 4.46 / ND", "mean log10 Kd (nM)": "3.93", "signal with controls": "0/9"}
{"CDR-H1": "GFTLPSYTIS", "CDR-H2": "VIYSDGRGTFYGDSVK", "CDR-H3": "GRAAGTFDS", "replicates, log10 nM": "ND / ND / ND", "mean log10 Kd (nM)": "ND", "signal with controls": "0/9"}
{"CDR-H1": "GFTLNSYGIS", "CDR-H2": "VNYSDDRRTFMGDSVK", "CDR-H3": "GRAAGTFDS", "replicates, log10 nM": "ND / ND / ND", "mean log10 Kd (nM)": "ND", "signal with controls": "1/9 (5.38)"}
{"CDR-H1": "GFTLNSYGIS", "CDR-H2": "VIYSDGRCTFYGDVVK", "CDR-H3": "GRAAGTFDR", "replicates, log10 nM": "ND / ND / ND", "mean log10 Kd (nM)": "ND", "signal with controls": "0/9"}
{"CDR-H1": "GFTLNSYGIS", "CDR-H2": "VIYSDGRREFYGDSVK", "CDR-H3": "GYAAGAFDS", "replicates, log10 nM": "3.05 / 2.52 / ND", "mean log10 Kd (nM)": "2.78", "signal with controls": "3/9 (3.88)"}
{"CDR-H1": "GFTLNSYGIS", "CDR-H2": "VIYSDIRRHFYGDSVK", "CDR-H3": "GRAAGRFDS", "replicates, log10 nM": "2.92 / 2.39 / ND", "mean log10 Kd (nM)": "2.65", "signal with controls": "1/9 (3.01)"}
{"CDR-H1": "GFTLNSYGIS", "CDR-H2": "VIYSDGRRTFYGDSKK", "CDR-H3": "WYAAGTFDS", "replicates, log10 nM": "ND / ND / ND", "mean log10 Kd (nM)": "ND", "signal with controls": "0/9"}
{"CDR-H1": "GFTLNSYGIS", "CDR-H2": "VIYSDGRRTFYGDSVK", "CDR-H3": "GRATGTFPS", "replicates, log10 nM": "ND / ND / ND", "mean log10 Kd (nM)": "ND", "signal with controls": "0/9"}
{"CDR-H1": "GFTLNLYGIS", "CDR-H2": "VIYIDGRRTFYGDGVK", "CDR-H3": "GRAAGTFDS", "replicates, log10 nM": "ND / ND / ND", "mean log10 Kd (nM)": "ND", "signal with controls": "2/9 (4.94)"}
{"CDR-H1": "GFTLNSPGIS", "CDR-H2": "VIYSLGRRTFYGDAVK", "CDR-H3": "GRAAGTFDS", "replicates, log10 nM": "ND / ND / ND", "mean log10 Kd (nM)": "ND", "signal with controls": "1/9 (3.77)"}
{"CDR-H1": "GFTLNSHGIS", "CDR-H2": "VIYSDGMRPFYGDSVK", "CDR-H3": "GRAAGTFDS", "replicates, log10 nM": "4.86 / ND / ND", "mean log10 Kd (nM)": "4.86", "signal with controls": "2/9 (4.50)"}
{"CDR-H1": "GFTLNSKGIS", "CDR-H2": "VIYSDGRRTFYGDSVK", "CDR-H3": "GRAAGTFMV", "replicates, log10 nM": "ND / ND / ND", "mean log10 Kd (nM)": "ND", "signal with controls": "3/9 (3.32)"}
{"CDR-H1": "GFTLNSYGIS", "CDR-H2": "VSQSDGRRTFYGDSVK", "CDR-H3": "GRAAGTFLS", "replicates, log10 nM": "ND / ND / ND", "mean log10 Kd (nM)": "ND", "signal with controls": "6/9 (4.41)"}
{"CDR-H1": "GFTLNSYGIS", "CDR-H2": "VIYSDCRRTFYLDSHK", "CDR-H3": "GRAAGTFDS", "replicates, log10 nM": "4.69 / ND / 4.06", "mean log10 Kd (nM)": "4.38", "signal with controls": "2/9 (4.15)"}
{"CDR-H1": "GFTLNSYGIP", "CDR-H2": "VIYSDGRRTFYDDSVK", "CDR-H3": "GRAAQTFDS", "replicates, log10 nM": "ND / ND / ND", "mean log10 Kd (nM)": "ND", "signal with controls": "3/9 (3.84)"}
{"CDR-H1": "GFTLNSYGIS", "CDR-H2": "VIYSDGMRTFYGDSVQ", "CDR-H3": "GRAAGTFDS", "replicates, log10 nM": "1.18 / 1.20 / 1.11", "mean log10 Kd (nM)": "1.16", "signal with controls": "1/9 (5.73)"}
{"CDR-H1": "GFTLNSYGIT", "CDR-H2": "VKYSDGRRTFYGDSVK", "CDR-H3": "GRAASTFDS", "replicates, log10 nM": "4.00 / 4.21 / ND", "mean log10 Kd (nM)": "4.10", "signal with controls": "1/9 (2.95)"}
{"CDR-H1": "GFTLNSYGIS", "CDR-H2": "VIYSTGRRYFHGDSVK", "CDR-H3": "GRAAGTFDS", "replicates, log10 nM": "ND / ND / ND", "mean log10 Kd (nM)": "ND", "signal with controls": "1/9 (3.41)"}

Excerpt, the first 5 entries:

CDR-H1	CDR-H2	CDR-H3	replicates, log10 nM	mean log10 Kd (nM)	signal with controls
GFTLNSYGIS	VIYVDGRRTFYGSSVK	GRAAGTFDS	ND / ND / ND	ND	0/9
GFTLNSYGIS	VIYSDGRRTFYSDVVK	GRAAGSFDS	3.30 / 2.63 / 3.89	3.27	2/9 (4.29)
NFTLTSYGIS	VIYSDGRRTFYGDSVK	GRKAGTFDS	3.65 / 2.84 / ND	3.25	4/9 (4.11)
YFTLNSYGIS	VIYSMGRRTFYGDSVK	GRAAGTFDS	ND / ND / ND	ND	0/9
GFTLVSYGIS	VIYSYGRRTFYGDSVK	GRWAGTFDS	ND / ND / ND	ND	0/9